These results are taken from US6699656B2, “Treatment and prevention of HIV infection by administration of derivatives of human chorionic gonadotropin” (University of Maryland Biotechnology Institute, priority 1996, dated 2004).

Values joined by “and” are separate entries in the source; they are usually repeats but may differ in a detail not shown here. Equal values may be shown once. “Also recorded” adds a separate entry of the source. Read-outs that look alike come from different tables or passages of the source.

For experiment [1], the system named is KS lesions. Particulars: cited from earlier work.
In experiment [2] the test system is KS Y-1 tumors. The experiment is described as follows: KS Y-1 tumors induced in immunodeficient mice. Particulars: treatment from one week after tumor cell injection; peptides 10 μg daily 5 days, hCG APL 100 IU s.c. daily 7 days. The class given is in vivo. As for the experimental part: The effects of the peptides on KS tumor cells were also evaluated in vivo in the mouse model. To induce KS tumors in the mice, 1×10^6/ml KS Y-1 cells in 50 μl PBS or saline were injected subcutaneously into immunodeficient mice (beige-XID-BNX mice). After one week, tumors ranged in size from 2×3 mm to 3×5 mm. Methods for detection of apoptosis (from tissue biopsies) were used, as described in Lunardi-Iskandar, Y. et al.(1995, Nature 375:64-68). Briefly, the samples were stained in situ for the presence of cells with DNA fragmentation. Tissue slides from formalin-fixed tumors were treated with terminal deoxynucleotide transferase for extension of DNA ends (hydroxyl 3′) and incorporation of digoxigenin-11-dUTP according to the manufacturer's instructions (Oncor, Gaithersburg, Md.). Anti-digoxigenin antibody conjugated with the enzyme peroxidase allowed detection of apoptotic cells that stain brown whereas viable cells stain blue.

In experiment [3] the test system is SIVmac251. The experiment is described as follows: SIV infected rhesus monkeys treated with hCG preparation. The class given is in vivo.
The test system of experiment [4] is Kaposi's sarcoma. Put plainly: Kaposi's sarcoma response in patients treated with hCG preparations. The arrangement: key to KS response: PR = Partial Regression; CR = Complete Regression; PD = Progressive Disease. It is filed as in vivo, human. To be noted: for apoptosis in KS tumor biopsies of AIDS-KS patients (in situ immunostaining): intralesional 2000 IU 3 times weekly, 2-3 weeks of therapy.

Experiment [5] has as its system hematopoietic progenitor cells. Put plainly: Hematopoietic progenitor colony assays (CFU-MIX, BFU-e, CFU-GM). To be noted: bone marrow and cord blood; hCG 200 IU/ml, peptides and subunits 100 μg/ml; 10 days. The class given is cell-based. The source says: Hematopoietic progenitor cells (2×10^5 cell/ml) were isolated from normal bone marrow and cord blood and seeded in methylcellulose. […] Aggregates containing more than 50 cells after 10 days of culture were counted as colonies.

In experiment [6] the test system is KS Y-1 or KS-SLK cells. Put plainly: KS clonogenic assay. Particulars: 2 KS cell lines; peptides 50 nmoles/ml, CR127 2 nmoles/ml; 10 days. The class given is cell-based, human. How it is done:
Briefly, the KS Y-1 cells were obtained from mononuclear cells isolated from pleural effusion of an AIDS patient with KS involving the lungs. After the depletion of T lymphocytes, monocytes/macrophages and fibroblasts by the cytotoxicity method, using monoclonal antibodies against CD2, CD3, CD4, CD8, CD10 and CD14 membrane antigens and baby rabbit complement, the cells were cultured in the absence of exogenous growth factors to select for transformed cells.

Experiment [7] concerns Kaposi's Sarcoma. Particulars: literature; cited from earlier work.
Experiment [8] deals with SV40 promoter. Put plainly: SV-40 driven CAT construct. The class given is cell-based. To be noted: 250 and 500 IU/ml.
The subject of experiment [9] is CD4+ T cells. The experiment is described as follows: Normal uninfected monkeys treated with hCG preparation. The class given is in vivo. To be noted: 2 uninfected treated animals; from 460 and 470 mm^3; listed as hCG preparation.
Where [10] appears, read: highest intralesional dose, 2000 IU 3 times weekly.
The mark [11] stands for this setting: lowest intralesional dose, 250 IU 3 times weekly.

“hCG APL: commercial preparation of native hCG (APL, Wyeth Ayerst)”: the “response of treated KS lesions” value in [1] (setting [10]) is given as 83%; in experiment [1] (setting [11]) it was 8%. Besides, the “effect on KS Y-1 tumors in mice (cell death, thin sections)” value in [2] is recorded as “comparable”. The Weight gain in [3] (3 SIV infected monkeys, 3,000 IU 2 times weekly from 3 weeks after inoculation) was in the range of 2 to 4 kg. In experiment [3] (3,000 IU 2 times weekly, maintained over 7 months), the “SIV p27 antigen in plasma” value is “marked decrease”. Besides, the “disease or SIV resistance to the hCG preparation” value in [3] (followed for 7 months) is “no evidence of disease or SIV resistance”. Also, in experiment [4] (listed as APL), the KS response entry is “PD (3×) and CR and Stable (5×) and PR (2×)”. Besides, the “growth of hematopoietic progenitors (colonies)” value in [5] is listed as “directly promoted”.
As to “CR127: highly purified native hCG heterodimer supplied by the National Hormone and Pituitary Program, NIH [reference compound]”, in experiment [6], the “anti-KS effect in clonogenic assays (number of colonies)” value was “inactive”.
As for “hCG Pregnyl: commercial native hCG preparation, Pregnyl (Organon)”, in experiment [4], the KS response entry was “PR (5×) and CR (3×) and Stable (2×) and PD (4×) and PD (Died) (2×)”.
With “recombinant α-chain: purified recombinant α-chain of hCG [reference compound]”, the “anti-KS effect in clonogenic assays (number of colonies)” value in [6] was “no anti-KS effect”.
For “hCG: human chorionic gonadotropin preparation, brand not stated at the place (or both Pregnyl and APL, 'PA')”, in experiment [1] (setting [10]), the “response of treated KS lesions” value was 83%. Moreover, the “response of treated KS lesions” value in [1] (setting [11]) is given as 16%. For the same substance, the “efficacy in the treatment of Kaposi's Sarcoma” value in experiment [7] was “efficacious”. For the same substance, the “transcription of the SV-40 driven CAT construct” value in experiment [8] is given as “no effect”. Moreover, in [4] (at week 3 of intralesional therapy), the “KS lesions, patient PH-VE” value is “regression of KS lesions”. Further, the “decline of pulmonary KS, patient PH-RF” value in experiment [4] (followed by stabilization) was 75%. Moreover, the “cutaneous and pulmonary KS, patient PO-GE” value in [4] (hCG alone) is listed as “complete response”. Besides, the “recurrent KS, patient PH-VE” value in [4] (higher dose hCG, 30,000 IU/week) was “responded; also recorded: KS lesion regression”. Also, in experiment [4] (human, in vivo), the “KS response, patients PH-JJ, PH-MH, PH-LG, PH-JPV, PG-16, PG-18” value is given as “partial responses”; the “KS response, patients PO-SC and PH-LFA” value was “did not respond to hCG or their disease progressed on therapy”. Moreover, the “pulmonary KS, patient PO-DU” value in experiment [4] (human, in vivo, po) is “stabilization of pulmonary disease”. Also, the “apoptosis in KS tumor biopsies of AIDS-KS patients (in situ immunostaining)” value in experiment [4] is given as “evidence of apoptosis and/or, histologically, complete absence of the KS tumor”. In addition, in experiment [4] (listed as hCG preparation), the “apoptosis in KS tumor biopsies of AIDS-KS patients (in situ immunostaining)” value is given as “evidence of apoptosis in all cells”; the KS response entry is “PR and CR”. Moreover, the “patients with marked responses” value in experiment [4] (of 10 patients with advanced disease treated systemically, 15,000 to 30,000 IU) is reported as 6. Moreover, the “additional patients with KS responses by ACTGO criteria” value in [4] (of 15 protocol patients from the Belgium trial) was determined as 4. Besides, the “regression of visceral KS” value in experiment [4] (patients PO-DU, PO-GE, PH-JPV, PH-RF, systemic 15,000 to 30,000 IU) is listed as at least 75%. In experiment [4] (pulmonary and gastric KS, after one month of hCG alone), the “pulmonary function test, patient PH-JPV” value is listed as “dramatically improved”. In experiment [4] (stabilization of disease at week 6), the “week at which complete regression was recorded, patient PH-GA” value is 14 week. Further, the “KS response, patients PG2 and PG5” value in experiment [4] (systemic hCG) is “exhibited a KS response”. Besides, in experiment [4] (systemic protocol 35,000 IU/week, followed for more than 4 months), the “patients with substantial anti-KS effect / regression of KS” value was 4 of the 5 and 4 of 5. Besides, the “CD4+ T cells after treatment” value in experiment [9] was 520 mm^3 and 650 mm^3.
